Test results taken from US12616672B2, “Methods for assessing risk of cardiovascular disease and methods and compounds for use in treating or preventing cardiovascular disease” (Queen Mary University of London, priority 2017, dated 2026).

Tested on: healthy volunteer peripheral blood neutrophils, monocytes and platelets
Experiment: Healthy volunteer whole blood incubated with RvDn-3 DPA then PAF, flow cytometry of activation markers
Type: cell-based, human
Settings: n=5 donors
Protocol: Blood was collected from healthy volunteers and incubated with RvD2n-3 DPA, RvD5n-3 DPA (0.1 nM, 1 nM or 10 nM) or vehicle (PBS) for 15 min (37° C.) then with PAF (100 ng/ml; 30 min; 37° C.). Cell activation and leukocyte-platelet aggregates were assessed using flow cytometry. (A,B) Representative histograms depicting neutrophil (A) CD11b and (B) CD62P expression. (C,D) Cumulative neutrophil ([…]) CD11b and (D) CD62P expression. (E,F) Monocyte (E) CD11b and (F) CD62P expression. Results are mean of n=5 per time point and expressed as percentage change from PAF incubated cells. *p<0.05 compared to PAF using one-sample t test, followed by Sidak correction of p values.
Blood was collected from healthy volunteers and incubated with RvD2n-3 DPA, RvD5n-3 DPA (0.1 nM, 1 nM or 10 nM) or vehicle (PBS) for 15 min (37° C.) then with PAF (100 ng/ml; 30 min; 37° C.). Cell activation and leukocyte-platelet aggregates were assessed using flow cytometry. (A,B) Images depicting platelet monocyte (A) and (B) platelet-neutrophil aggregates. Results are representative of n=3 distinct experiments. (C,D) Cumulative neutrophil (C) CD11b and (D) CD62P expression. […] Results are mean of n=5 per condition and expressed as percentage change from PAF incubated cells. *p<0.05 compared to PAF using Wilcoxon Signed Rank Test. […] Adhesion molecule expression evaluated using flow cytometry. […]

## CC/C=C\CC(O)/C=C/C=C\CC/C=C/C(O)C(O)CCCCCC(=O)O (stereo not shown) [RvD1n-3 DPA, 7,8,17-trihydroxy-9,11,13,15E,19Z-docosapentaenoic acid]
  regulation of neutrophil, monocyte and platelet responses: only partially regulate
